Activity calls are given as the source filed them. The rule behind the calls is not given here.
Target: Kappa-type opioid receptor (Homo sapiens, UniProt P41145)
Test: Agonist activity at kappa opioid receptor (unknown origin) expressed in HEK293 cells assessed as inhibition of forskolin-induced cAMP accumulation at 1 uM after 30 mins

Chains of the proteins cited; added tags and fusions are not shown. Lines headed by an entry give the natural chain unless they say otherwise; changes in a name come on top.
UniProt P41145: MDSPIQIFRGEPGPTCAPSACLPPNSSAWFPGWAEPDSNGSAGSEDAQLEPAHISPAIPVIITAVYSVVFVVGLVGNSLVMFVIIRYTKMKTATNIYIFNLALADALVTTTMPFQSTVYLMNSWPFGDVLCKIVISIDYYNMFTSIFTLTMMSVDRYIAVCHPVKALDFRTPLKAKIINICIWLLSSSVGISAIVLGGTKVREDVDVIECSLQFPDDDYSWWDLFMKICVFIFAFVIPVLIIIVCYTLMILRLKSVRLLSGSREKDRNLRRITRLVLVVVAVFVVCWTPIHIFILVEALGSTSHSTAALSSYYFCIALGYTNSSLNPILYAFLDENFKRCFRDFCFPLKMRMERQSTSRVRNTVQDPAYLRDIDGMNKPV

CN(C(=O)Cc1ccccc1)[C@H]1CC[C@@]2(CCCO2)C[C@@H]1N1CCCC1
inhibition: Active

— ChEMBL document CHEMBL3232856, “Endomorphin analogues with mixed μ-opioid (MOP) receptor agonism/δ-opioid (DOP) receptor antagonism and lacking β-arrestin2 recruitment activity” (Bioorg Med Chem, 2014)
